Reference: publication PMC10304631, “Stereoisomer-Dependent Membrane Association and Capacity for Insulin Delivery Facilitated by Penetratin” (Pharmaceutics, 2023)

Tests used:
Caco-2 cell monolayers [1] = assay type: in vitro ADME, human
Experimental: Caco-2, HepG2, and IEC-6 cells were maintained in Corning Costar polystyrene culture flasks (75 cm^2 or 175 cm^2 surface area from Sigma-Aldrich) in either Dulbecco'[…] Eagles medium (Caco-2 and IEC-6 cells) or Eagle's minimum essential medium (HepG2 cells). […] The cells were kept in a humidified incubator at 37 °C and 5% CO2 and subcultured weekly at approximately 90% confluency by trypsinization. […] Plastic-bottom plates for Caco-2 cells were coated using collagen (8.93 μg/cm^2) prior to seeding. The variations in cell densities and incubation length were necessary to ensure uniform confluence (approx. 90%). […] After the final sampling, TEER was measured using the previously described equilibration procedure. Afterward, the viability of the cell in the monolayers was determined by using 350 μL of the MTS/PMS buffer (240 μg/mL MTS and 2.4 μg/mL PMS in hHBSS pH 7.4) and 1000 μL hHBSS on the apical and basolateral side, respectively. After 1 h, the MTS/PMS buffer was collected from the apical side and analyzed at 492 nm using a plate reader (FLUOStar OPTIMA, BMG LABTECH, Ortenberg, Germany). […] Scintillation fluid (2 mL) was mixed with each sample that was subsequently quantified by liquid scintillation (Perkin-Elmer Tri-Carb 2910 TR, Perkin Elmer, Boston, MA, USA). […] The calculation of Papp from the permeation experiments was calculated as described by Artursson et al.. […]

Caco-2 cell monolayers [2] = conditions: Caco-2, pH 5; cited from earlier work
Caco-2 cell monolayer = conditions: cited from earlier work

| SMILES | Fold increase in permeation of vancomycin compared to buffer alone (Caco-2 cell monolayers [1]) | Effect on insulin permeation across Caco-2 cell monolayers (Caco-2 cell monolayers [2]) | Morphology of Caco-2 cell monolayer (transmission electron micrographs) (Caco-2 cell monolayer) | Effect on insulin permeation across Caco-2 monolayer (Caco-2 cell monolayers [2]) |
| --- | --- | --- | --- | --- |
| CC[C@@H](C)[C@@H](NC(=O)[C@@H](CCCCN)NC(=O)[C@H](NC(=O)[C@@H](CCC(N)=O)NC(=O)[C@H](N)CCCNC(=N)N)[C@H](C)CC)C(=O)N[C@H](Cc1c[nH]c2ccccc12)C(=O)N[C@H](Cc1ccccc1)C(=O)N[C@H](CCC(N)=O)C(=O)N[C@H](CC(N)=O)C(=O)N[C@H](CCCNC(=N)N)C(=O)N[C@H](CCCNC(=N)N)C(=O)N[C@H](CCSC)C(=O)N[C@H](CCCCN)C(=O)N[C@H](Cc1c[nH]c2ccccc12)C(=O)N[C@H](CCCCN)C(=O)N[C@H](CCCCN)C(=O)O [D-PEN, D-Penetratin] | five-fold | increase the permeation of insulin | did not result in morphologies different from that seen for the buffer control |  |
| CC[C@H](C)[C@H](NC(=O)[C@H](CCCCN)NC(=O)[C@@H](NC(=O)[C@H](CCC(N)=O)NC(=O)[C@@H](N)CCCNC(=N)N)[C@@H](C)CC)C(=O)N[C@@H](Cc1c[nH]c2ccccc12)C(=O)N[C@@H](Cc1ccccc1)C(=O)N[C@@H](CCC(N)=O)C(=O)N[C@@H](CC(N)=O)C(=O)N[C@@H](CCCNC(=N)N)C(=O)N[C@@H](CCCNC(=N)N)C(=O)N[C@@H](CCSC)C(=O)N[C@@H](CCCCN)C(=O)N[C@@H](Cc1c[nH]c2ccccc12)C(=O)N[C@@H](CCCCN)C(=O)N[C@@H](CCCCN)C(=O)O [L-PEN, L-Penetratin] | only a small increase | increase the permeation of insulin |  | increased insulin permeation |
